Biological target: "aged" hAChE (recombinant human acetylcholinesterase inhibited by Sarin analog 7-(isopropyl methylphosphonyl)-4-methylumbelliferone) (Homo sapiens, UniProt P22303)
Assay: Resurrection assay: reactivation of "aged" hAChE by Compound 100 (Ellman ATCh hydrolysis after 2-PAM)
Conditions: for vi (AChEaged): pH 7.3, 27° C., then 30 minute 100 μM 2-PAM, initial rate of ATCh hydrolysis; for % AChEreact: percent of "aged" hAChE reactivated by 2-PAM relative to AChEfree; for % AChERes.: percent of resurrected hAChE (Equation 3)
[1] = 1.77 mM Compound 100, incubation 1.00 hours
[2] = 1.77 mM Compound 100, incubation 4.00 hours
[3] = 1.77 mM Compound 100, incubation 12.00 hours
[4] = 1.77 mM Compound 100, incubation 24.00 hours
[5] = 1.77 mM Compound 100, incubation 48.00 hours

COc1cccc(C=NO)[n+]1C
vi (AChEaged) [1]: 11.05 (±1.3) mA/min | % AChEreact [1]: 2.45 (±0.7) % | % AChERes. [1]: 1.28 (±0.8) % | vi (AChEaged) [2]: 16.66 (±1.0) mA/min | % AChEreact [2]: 5.67 (±0.6) % | % AChERes. [2]: 4.50 (±0.6) % | vi (AChEaged) [3]: 20.56 (±0.1) mA/min | % AChEreact [3]: 6.46 (±1.1) % | % AChERes. [3]: 5.30 (±1.1) % | vi (AChEaged) [4]: 21.90 (±1.5) mA/min | % AChEreact [4]: 8.70 (±1.3) % | % AChERes. [4]: 8.7 (±1.3) % | vi (AChEaged) [5]: 21.75 (±1.3) mA/min | % AChEreact [5]: 7.03 (±0.8) % | % AChERes. [5]: 7.03 (±0.8) %

Reference: patent US9884052B2, “Compounds and methods to treat organophosphorus poisoning” (dated 2018)
